Structures are written as SMILES. The entries are a selection whose mix differs from that of the whole data set. Records with an inconclusive call do not appear. Activity calls are given as the source filed them. No rule for the calls is given here.

Amino acid sequences for entries named in this document (tags omitted).
UniProt P42568, whole entry: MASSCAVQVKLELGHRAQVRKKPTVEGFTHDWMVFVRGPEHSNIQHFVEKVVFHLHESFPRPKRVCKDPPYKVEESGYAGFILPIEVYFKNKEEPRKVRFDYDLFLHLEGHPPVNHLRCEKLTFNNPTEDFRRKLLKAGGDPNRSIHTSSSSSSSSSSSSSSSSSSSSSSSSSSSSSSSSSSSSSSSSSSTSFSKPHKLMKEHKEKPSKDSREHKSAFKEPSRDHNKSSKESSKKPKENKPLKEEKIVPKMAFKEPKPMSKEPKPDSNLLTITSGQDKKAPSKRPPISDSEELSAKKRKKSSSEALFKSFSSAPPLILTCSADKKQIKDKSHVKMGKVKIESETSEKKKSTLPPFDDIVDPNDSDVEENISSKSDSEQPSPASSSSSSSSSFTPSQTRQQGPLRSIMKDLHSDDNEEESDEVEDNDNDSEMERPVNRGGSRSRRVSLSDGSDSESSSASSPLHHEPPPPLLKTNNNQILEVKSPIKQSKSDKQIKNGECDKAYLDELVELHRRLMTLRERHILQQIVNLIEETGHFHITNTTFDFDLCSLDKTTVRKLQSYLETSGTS

This assay has as its target Protein AF-9 (Homo sapiens) (UniProt P42568). Nature of the assay: AF9 binding to AF4 blockers, potency – biochemical, cherry-picked samples, plate reader, dose response (AID 720495). The conditions noted are these: biochemical protein-protein interaction assay, at 10 µM (top of the series).

In the case of `CCC(c1nnnn1C1CCCCC1)N1CCC(n2c(=O)[nH]c3ccccc32)CC1` (stereo unspecified), the “activity change, negative = inhibition” value is “inactive”.

For the origin of these results see PubChem BioAssay AID720495 (Broad Institute, 2013).
